From PubChem BioAssay
GALK inhibitor = galactokinase (human) inhibition; P51570; Purified GALK, Kinase-Glo residual ATP luminescence; Potency, µM (doses to about 57.5 µM), for the others: at the top dose activity change, negative = inhibition, actives largely listed as inhibitors; 270,000 compounds, 0.007% hits; AID 1868; note: potency is the fitted concentration of half-maximal effect; % is set by controls: 0 for no effect and ±100 for the full control effect
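Galactose (100 uM) and ATP (35 uM) were turned over by 5 nM GALK for 1 h at RT. Kinase-Glo Plus then converted the remaining ATP into a luminescent signal.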
Nrf2 activator = activators of Nrf2 (ARE) signaling; AREc32 ARE-luciferase reporter (MCF7-derived line), luminescence, 24 h; Potency, µM (series often up to 46.1 µM), without a hit: at the highest dose activation, usual class: activators; 410,000 compounds, 0.31% hits; AID 624171; note: potency is the fitted concentration of half-maximal effect; % of control where 0% means no effect; nearly all actives have a fitted effect of over 65% in size
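Steps: seed AREc32_Fluc cells (1000/well, 5% FBS OPTI-MEM); incubate overnight at 37 deg C; add 23 nL compound; incubate 24 hr; add Steady-Glo; hold 30 min RT; read luminescence.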
A549 tox = kills or reduces viability of A549 cells in Nrf2 counter-screen | Potency, µM (highest dose often 46 µM), for the others: at the top dose activity change, negative = cytotoxicity, hits mostly inhibitors | 390,000 compounds, 0.16% hits | A549 ARE-Fluc cells, CellTiter-Fluor viability, 18-24 h; note: potency is the fitted concentration of half-maximal effect; % is set by controls: 0 for no effect and ±100 for the full control effect
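A549 ARE_Fluc cells in 5% FBS OPTI-MEM were exposed to compounds in concentration-response for 18-24 h at 37 deg C. Viability was read by CellTiter-Fluor fluorescence (Ex 405/Em 525) after 30 min, before the luciferase read.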
miR-21 reporter = raises the signal of a miR-21 reporter | HeLa miR-21 FLuc reporter, luciferase, 48 h | Potency, µM (doses to about 38.3 µM), for the others: at the highest dose reporter change, positive = more light | 340,000 tested, under 10 active | AID 2288; active = well fitted rising curve with a large enough effect; inconclusive = small, poorly fitted or top-dose-only effect; inactive = no such curve, though single readings can be large or run the other way;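 also: % of control where 0% means no effect; miR-21 action dims this reporter so a rising signal means less miR-21 action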
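Compounds were titrated across several concentrations (up to approximately 40 uM) and incubated 48 hours with HeLa miR-21-FLuc reporter cells (miR-21 target sequence downstream of FLuc, endogenous miR-21). Readout was firefly luciferase luminescence after lytic detection reagent.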
Nrf2 block = blocks Nrf2 signaling; A549 ARE-Fluc reporter, luciferase luminescence, 18-24 h; Potency, µM (doses to about 46 µM), inactives show at the top dose activity change, negative = inhibition, hits mostly inhibitors; 360,000 compounds, 2.1% hits; note: potency is the fitted concentration of half-maximal effect; % is set by controls: 0 for no effect and ±100 for the full control effect; nearly all actives have a fitted effect of over 60% in size
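A549 ARE_Fluc cells, 5000/well, 5% FBS OPTI-MEM; compounds in dose-response, 18-24 h at 37 °C/5% CO2; CellTiter-Fluor viability read (Ex 405/Em 525), then BugLite luciferase luminescence = Nrf2 activity.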
PI4K2A block = blocks human PI4K2A kinase activity. Q9BTU6. purified PI4K2A, ADP-Glo luminescence, 1 h; stronger effect = lower value. activity change, negative = inhibition, % at 76.9 µM. 420,000 compounds, 0.13% hits. AID 1346378; in the data active = activity change below about -50%; inconclusive = mostly about -30% to -49%;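 note: -100% = wells without enzyme as full effect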
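Compounds are screened against recombinant PI4K2A using PI as substrate and ATP, the latter dispensed at 300 microM. Reactions run one hour at ambient temperature before ADP-Glo detection; full inhibition defined by wells lacking enzyme.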
* marks the source's active call; other numbers are inactive results; ? = inconclusive; · = no result. Most compounds without a hit are left out; they make up all but 2.2% or so of the library. Unless noted, calls come from the whole dose curve; as a rule, active = well fitted curve in the direction sought with a large enough effect; inconclusive = small, poorly fitted or top-dose-only effect, or another doubt; inactive = no such curve, though single readings can be large; an effect the other way counts as inactive or inconclusive.

Field names – A = GALK inhibitor; B = Nrf2 activator; C = A549 tox; D = miR-21 reporter; E = Nrf2 block; F = PI4K2A block
1. COC(=O)[C@]12C=CCN1[C@H](c1ccc(OC)c(OC)c1)c1c(c3ccccc3n1S(=O)(=O)c1ccc(C)cc1)C2
  A: ·; B: ·; C: ·; D: ·; E: ·; F: -3

2. Cn1c(/C(C#N)=C(\O)c2cc(Cl)sc2Cl)nc2ccccc21
  A: -5%; B: 1.4µM*; C: 3%; D: 2%; E: 2%; F: -1

3. Cn1c(/C(C#N)=C(\O)c2ccc(Br)s2)nc2ccccc21
  A: -3%; B: 2%; C: 25%; D: -4%; E: ?; F: -5

4. COc1ccc2c(c1)CN1CN(Cc3ccc(F)cc3)S(=O)(=O)CC21 (stereo not drawn)
  A: ·; B: ·; C: ·; D: ·; E: ·; F: -3

5. Cc1ccc(-c2csc(NC(=O)c3ccc(Br)cc3)c2C(=O)O)cc1
  A: -13%; B: 0%; C: -8%; D: -9%; E: ?; F: -4

6. COc1cc(C(=O)Nc2sc(C)c(C)c2C(=O)O)cc(OC)c1OC
  A: 5%; B: 7%; C: 0%; D: 3%; E: -26%; F: -4

7. Cc1ccc(-c2csc(NC(=O)c3cccc(C)c3)c2C(=O)O)cc1
  A: ·; B: -1%; C: -18%; D: ·; E: 7.3µM*; F: 17

8. COc1cc(C(=O)Nc2scc(-c3ccc(Br)cc3)c2C(=O)O)cc(OC)c1OC
  A: 0%; B: -1%; C: -16%; D: 5%; E: 16µM*; F: -3

9. Cc1cccc(C(=O)Nc2scc(-c3ccc(Br)cc3)c2C(=O)O)c1
  A: ·; B: -1%; C: -15%; D: ·; E: 12µM*; F: -7

10. Cc1cccc(C(=O)Nc2scc(CC(C)C)c2C(=O)O)c1
  A: 0%; B: -1%; C: ?; D: 30%; E: ?; F: 2

11. CCn1c(=O)c2c(nc(C=Cc3ccc(OC)c(OC)c3)n2C)n(CC)c1=O
  A: ·; B: ·; C: ·; D: ·; E: ·; F: -2

12. O=C(NCCc1ccccc1)OCc1cn(Cc2cccc(C(F)(F)F)c2)nn1
  A: ·; B: ·; C: ·; D: ·; E: ·; F: 2

13. O=C(CCl)N(c1ccccc1)C1CCS(=O)(=O)C1 (stereo not drawn)
  A: -2%; B: -3%; C: ?; D: ?; E: 23µM*; F: -3

14. CC(=O)c1ccc(NC(=O)C[n+]2ccc(N(C)C)cc2)cc1
  A: -3%; B: 0%; C: 0%; D: 2%; E: -43%; F: -3

15. CN(C)c1cc[n+](CC(=O)Nc2ccc(OC(F)F)cc2)cc1
  A: 1%; B: 2%; C: -7%; D: 16%; E: 23µM*; F: -3

16. COc1ccc(C(=O)C[n+]2ccc(N(C)C)cc2)cc1
  A: -1%; B: -1%; C: -11%; D: 8%; E: 21µM*; F: 5

17. Cc1cc(C)n2nc(-c3ccccc3)cc2n1
  A: 2%; B: 8.9µM*; C: 9%; D: -49%; E: ?; F: -3

18. COc1ccccc1C(=O)NCC(=O)N=Nc1c(O)n(C(C)C)c2ccccc12
  A: 7%; B: 0%; C: -15%; D: -19%; E: 23µM*; F: 2

19. Cc1cc(NS(=O)(=O)c2ccc3c(c2)CCC(=O)N3)ccc1F
  A: ·; B: ·; C: -3%; D: ·; E: ?; F: ·

20. O=C(NC1CCN(Cc2ccccc2)CC1)c1cccc(S(=O)(=O)Nc2ccc(Br)cc2)c1
  A: ·; B: 4%; C: -16%; D: ·; E: ?; F: 3

21. COc1ccc(NS(=O)(=O)c2ccc(C)c(C(=O)NC3CCN(Cc4ccccc4)CC3)c2)cc1
  A: 4%; B: 2%; C: -28%; D: 16%; E: 13µM*; F: 4

22. Cc1ccc(NS(=O)(=O)c2cccc(C(=O)NC3CCN(Cc4ccccc4)CC3)c2)c(C)c1
  A: ·; B: 0%; C: ?; D: ·; E: 21µM*; F: -4

23. O=C(NC1CCN(Cc2ccccc2)CC1)c1cccc(S(=O)(=O)Nc2ccc(F)cc2)c1
  A: ·; B: 0%; C: ?; D: ·; E: 16µM*; F: 2

24. COc1ccccc1NS(=O)(=O)c1cc(C(=O)NC2CCN(Cc3ccccc3)CC2)ccc1C
  A: ·; B: 0%; C: ?; D: ·; E: 5.8µM*; F: -1

25. COc1ccccc1NS(=O)(=O)c1ccc(C)c(C(=O)NC2CCN(Cc3ccccc3)CC2)c1
  A: ·; B: 5%; C: 3%; D: ·; E: ?; F: 5

26. Cc1cccc(C(=O)NCC(=O)NC2CCN(Cc3ccccc3)CC2)c1
  A: ·; B: 2%; C: 5%; D: ·; E: -4%; F: 3

27. COC(=O)[C@]12C[C@H](CC(=O)NCc3cccs3)C(=O)N(Cc3ccc4c(c3)OCO4)C1=C[C@H](C(C)C)O[C@@H]2C1CC1
  A: ·; B: ·; C: ·; D: ·; E: ·; F: 1

28. COP(=O)(CC(=O)OC(C)(C)C)C(CC(C)C)NC(=O)OCc1ccccc1 (stereo not drawn)
  A: ·; B: ·; C: ·; D: ·; E: ·; F: 1

29. c1ccc(Cn2ccc3ccc(-c4ccc5ccn(Cc6cccc(Oc7ccccc7)c6)c5c4)cc32)cc1
  A: ·; B: ·; C: ·; D: ·; E: ·; F: -3

30. O=S(=O)(c1ccccc1F)N1CCC(c2nc3ccccc3o2)CC1
  A: ·; B: ·; C: ·; D: ·; E: ·; F: 5

31. CCN(CC)CCN(C(=O)/C=C/c1cccs1)c1nc2ccc(OC)cc2s1
  A: ·; B: 0%; C: -12%; D: ·; E: ?; F: 5

32. CN(C)CCCN(C(=O)/C=C/c1cccs1)c1nc2c(F)cccc2s1
  A: 6%; B: ?; C: -7%; D: ?; E: 4%; F: 3

33. COc1ccc2nc(N(CCN(C)C)C(=O)/C=C/c3cccs3)sc2c1
  A: 8%; B: 10µM*; C: -4%; D: ?; E: -25%; F: 11

34. Cc1cccc2sc(N(CCN(C)C)C(=O)/C=C/c3cccs3)nc12
  A: 0%; B: 11µM*; C: ?; D: -2%; E: -18%; F: 6

35. COc1ccc2sc(N(CCN(C)C)C(=O)/C=C/c3cccs3)nc2c1
  A: 8%; B: 10µM*; C: -1%; D: 26%; E: -8%; F: 6

36. O=S(=O)(CC1NCc2ccccc21)NC1CCCC1 (stereo not drawn)
  A: ·; B: ·; C: ·; D: ·; E: ·; F: 0

37. CC1=C(SCc2ccccc2)C(=O)c2ccccc2C1=O
  A: ·; B: -2%; C: -13%; D: ·; E: -14%; F: ?

38. O=C1C(SCCO)=C(SCCO)C(=O)c2ccccc21
  A: ·; B: -4%; C: ?; D: ·; E: 26µM*; F: ?

39. CCOC(=O)[C@]12CCCCC/C=C\1N(CCc1ccc(Cl)cc1)C(=O)[C@H]2CC(=O)N1CCCC1
  A: ·; B: ·; C: ·; D: ·; E: ·; F: -1

40. CCN1C(=O)Nc2cccc3cccc1c23
  A: ·; B: ?; C: 2%; D: ·; E: 8.2µM*; F: -25

41. CCNc1nc(-c2cc(C)n(Cc3ccco3)c2C)cs1
  A: -1%; B: 0%; C: -8%; D: 0%; E: -6%; F: -5

42. Cc1cc(-c2csc(NC(=O)c3ccc(=O)[nH]c3)n2)c(C)n1Cc1ccco1
  A: ·; B: 0%; C: 2%; D: 3%; E: -5%; F: -62*

43. COc1ccc(C2CC(c3cccs3)=NN2C(=O)CSC2=NCCS2)cc1 (stereo not drawn)
  A: -10%; B: 18%; C: -26%; D: -15%; E: 18µM*; F: -2

44. CCC(=O)N1N=C(c2cccs2)CC1c1ccc(C)cc1 (stereo not drawn)
  A: ·; B: 4%; C: -1%; D: -8%; E: -9%; F: -4

45. Cc1ccc(C2CC(c3cccs3)=NN2C(=O)CSC2=NCCS2)cc1 (stereo not drawn)
  A: 1%; B: 12%; C: -19%; D: 3%; E: 16µM*; F: -1

46. CC(Cc1cccs1)NC(=S)Nc1ccc(Cl)cc1 (stereo not drawn)
  A: 3%; B: 0%; C: -16%; D: -5%; E: 18µM*; F: -2

47. CC(=O)N(C)c1ccc(NC(=O)C(Sc2ccccc2)c2ccccc2)cc1 (stereo not drawn)
  A: -1%; B: 3%; C: -13%; D: -6%; E: ?; F: 5

Full records as entered above. Order of screens: GALK inhibitor, Nrf2 activator, A549 tox, miR-21 reporter, Nrf2 block, PI4K2A block
CCNc1nc(-c2cc(C)n(Cc3ccco3)c2C)cs1 is entered as -1%, 0%, -8%, 0%, -6%, -5
COc1ccc(C2CC(c3cccs3)=NN2C(=O)CSC2=NCCS2)cc1 (stereo not drawn) is entered as -10%, 18%, -26%, -15%, 18µM*, -2
Cc1ccc(C2CC(c3cccs3)=NN2C(=O)CSC2=NCCS2)cc1 (stereo not drawn) is entered as 1%, 12%, -19%, 3%, 16µM*, -1
